Results from patent US20050287522A1.

Target: ω fragment of β-galactosidase (deletion mutant missing amino acids 11-41) (Escherichia coli (strain K12)) [β-galactosidase: P00722]
Experiment: cell-based or functional assay

Substance: β-galactosidase amino acids 5-49 fused to the N-terminus of GFP (from UniProt P00722 5-49; P42212 1-238)
- β-galactosidase activity (complementation in C2C12 cells) (fold less activity): 100
